Values of other authors in patent US9539259B2, “Compounds and methods of use thereof for treating neurodegenerative disorders” (THE JOHNS HOPKINS UNIVERSITY, priority 2012, dated 2017).

Target: T1, DLK (Homo sapiens, UniProt Q12852)
T1 sequence (Q12852 1-859): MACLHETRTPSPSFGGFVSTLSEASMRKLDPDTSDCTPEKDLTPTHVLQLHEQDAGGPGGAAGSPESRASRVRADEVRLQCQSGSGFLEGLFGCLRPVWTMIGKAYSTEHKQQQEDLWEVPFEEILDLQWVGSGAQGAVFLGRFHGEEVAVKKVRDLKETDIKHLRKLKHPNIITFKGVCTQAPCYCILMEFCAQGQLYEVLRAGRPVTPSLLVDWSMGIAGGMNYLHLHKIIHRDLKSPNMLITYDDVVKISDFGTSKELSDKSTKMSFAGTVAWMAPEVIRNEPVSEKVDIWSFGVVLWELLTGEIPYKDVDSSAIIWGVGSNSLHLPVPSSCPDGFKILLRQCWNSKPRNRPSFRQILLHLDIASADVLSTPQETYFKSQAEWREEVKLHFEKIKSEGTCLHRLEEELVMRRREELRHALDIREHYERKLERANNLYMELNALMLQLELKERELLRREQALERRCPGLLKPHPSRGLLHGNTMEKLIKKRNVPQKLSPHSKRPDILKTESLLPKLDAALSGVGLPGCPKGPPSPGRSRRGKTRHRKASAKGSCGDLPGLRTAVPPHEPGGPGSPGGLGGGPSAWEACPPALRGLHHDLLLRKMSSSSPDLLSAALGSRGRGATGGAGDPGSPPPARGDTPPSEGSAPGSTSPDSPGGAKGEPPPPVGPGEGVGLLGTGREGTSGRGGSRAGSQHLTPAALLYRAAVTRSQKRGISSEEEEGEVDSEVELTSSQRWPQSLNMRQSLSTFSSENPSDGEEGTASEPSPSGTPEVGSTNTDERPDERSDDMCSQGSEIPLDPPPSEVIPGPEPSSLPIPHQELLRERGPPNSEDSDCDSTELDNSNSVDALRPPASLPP
Details: published kinase inhibitor profiles; cited from earlier work

## C[C@]12O[C@H](C[C@]1(O)CO)n1c3ccccc3c3c4c(c5c6ccccc6n2c5c31)CNC4=O [lestautinib, lestaurtinib]
  binding to DLK: reported to bind DLK
